Measured values reported in ChEMBL document CHEMBL3085656, “A medicinal chemistry perspective for targeting histone H3 lysine-79 methyltransferase DOT1L” (J Med Chem, 2013).

Assay: Intrinsic clearance in human liver microsomes assessed per mg of protein
Format: ADME
Conditions: read-out: CLH

microsomal CLint: 24 µL/min/mg
Structure (SMILES): CC(C)N(CCCNC(=O)Nc1ccc(C(C)(C)C)cc1)C[C@H]1O[C@@H](n2cnc3c(N)ncnc32)[C@H](O)[C@@H]1O
